Assay results reported in publication PMC3875372 (Biochemistry, 2013).

Key:
[1] = N-pentenoyl protected form, in acetonitrile
ecDHFR = conditions: DHFRs modified at position 115, Table 3; relative to wild type

**Q.** For 4-biphenyl-L-phenylalanine, which “ΦF (fluorescence quantum yield)” value [1] is on record?
**A.** Its value is 0.73.

**Q.** And the ε [1]?
**A.** The ε was 38,250.

**Q.** What about the “λex (nm)” value [1] of the same substance?
**A.** Its value is 283 nm.

**Q.** What about the “λmax (nm)” value [1] of the same substance?
**A.** The value was 283 nm.

**Q.** And the “λem (nm)” value ([1]; excited at λmax)?
**A.** The value was 344 nm.

**Q.** What about the “relative activity (%)” value (ecDHFR) of the same substance?
**A.** The value was 91 ± 3%.
